Target: 20S Proteasome (Homo sapiens (Human), UniProt P28074)
Experiment: 20S proteasome detection kit, in vitro proteasome activity test (7-AMC fluorescence)
Assay type: biochemical
Conditions: average of three tests
Text: The proteasome interacts with its substrate to produce the fluorescent substance 7-amino-4-methylcoumarin (7-AMC), and the concentration of 7-AMC is positively correlated with the activity of the proteasome. Measure the fluorescence intensity at 380/460 nm to calculate the inhibition rate based on the absorbance of the inhibitor group and the control group, and calculate the IC50 value.

Protein sequences, listed by entry. Tags and fused reporters are not part of them. Lines headed by an entry give the natural chain unless they say otherwise; changes in a name come on top.
UniProt P28074: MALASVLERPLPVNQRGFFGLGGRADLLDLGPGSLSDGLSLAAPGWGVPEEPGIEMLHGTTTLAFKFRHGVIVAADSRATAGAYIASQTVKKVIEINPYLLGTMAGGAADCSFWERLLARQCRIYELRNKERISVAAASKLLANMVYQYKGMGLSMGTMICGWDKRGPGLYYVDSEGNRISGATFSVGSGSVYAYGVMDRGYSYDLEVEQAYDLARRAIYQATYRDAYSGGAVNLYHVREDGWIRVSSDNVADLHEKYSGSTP

**Q.** How did the IC50 turn out when CC(C)C[C@H](NC(=O)CNC(=O)c1cc(Cl)ccc1Cl)B(O)O [Ixazomib, reference compound] was run?
**A.** 6.3 nM

From patent US12054502B2, “Multifunctional immunity-targeted micromolecule anti-cancer medicine Bestazomib (Bestazomib) and preparation method and application thereof” (SHANDONG HUBBLE KISEN BIOLOGICAL TECHNOLOGY CO., LTD., priority 2018, dated 2024)
